Assay results: patent US9919060B2 (University Court of the University of Dundee, priority 2009, dated 2018)

Biological target: T1, CYP1B1 (Homo sapiens, UniProt Q16678)
T1 sequence (Q16678 1-543): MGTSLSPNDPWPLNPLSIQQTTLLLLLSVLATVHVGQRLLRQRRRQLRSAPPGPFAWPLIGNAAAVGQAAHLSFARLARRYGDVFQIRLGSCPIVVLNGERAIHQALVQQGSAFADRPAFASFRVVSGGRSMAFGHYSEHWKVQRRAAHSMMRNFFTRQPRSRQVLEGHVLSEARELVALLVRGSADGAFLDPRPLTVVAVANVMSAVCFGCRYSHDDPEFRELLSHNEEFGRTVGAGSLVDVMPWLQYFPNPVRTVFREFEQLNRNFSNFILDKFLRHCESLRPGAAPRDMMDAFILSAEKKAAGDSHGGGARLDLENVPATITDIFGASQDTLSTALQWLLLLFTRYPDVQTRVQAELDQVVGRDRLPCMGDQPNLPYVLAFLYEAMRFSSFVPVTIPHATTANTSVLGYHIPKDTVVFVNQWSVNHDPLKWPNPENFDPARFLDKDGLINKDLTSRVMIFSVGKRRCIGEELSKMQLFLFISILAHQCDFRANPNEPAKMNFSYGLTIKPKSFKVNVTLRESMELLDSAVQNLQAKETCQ
Experiment: CYP1B1 substrate prediction model (Gaussian Kernel weighted k-NN)

`O=c1cc(-c2ccccc2)oc2c1ccc1ccccc12` [α-napthoflavone, α-naphthoflavone, reference compound] was tested, and the “% CYP1B1 substrate inhibition, accuracy (predicted versus actual)” value was 93%.
